## Measured affinities in a library of Ab-14 light chain variants

Data: MIT Lincoln Laboratory AlphaSeq set, Engelhart et al. 2022, doi:10.1038/s41597-022-01779-4, as distributed in FLAb.

All variants were tested on one target, the spike HR2 peptide PDVDLGDISGINAS (SARS-CoV-2).

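Phage display of a naive human antibody library on the peptide gave the parent. AAYL50 was designed without a model: most single CDR substitutions and a random sample of double and triple ones. The scFvs were displayed on barcoded MATa yeast, the peptide on MATalpha yeast. After mating in shaken culture at 30 °C for 16 h, diploids were selected and their barcode pairs sequenced. Read counts were normalised to the haploid input and turned into Kd by a linear fit to BCL2-family pairs of known affinity, for each replicate. The assay was run in three technical replicates.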

Ab-14 is the parent antibody, in scFv form: VH, then a 15-residue (Gly4Ser)3 linker, then VL. The heavy chain is unchanged in all variants.
VH: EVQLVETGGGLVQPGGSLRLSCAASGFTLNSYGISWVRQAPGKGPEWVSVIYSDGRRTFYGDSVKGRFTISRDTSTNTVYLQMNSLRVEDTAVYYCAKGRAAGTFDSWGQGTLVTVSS
VL: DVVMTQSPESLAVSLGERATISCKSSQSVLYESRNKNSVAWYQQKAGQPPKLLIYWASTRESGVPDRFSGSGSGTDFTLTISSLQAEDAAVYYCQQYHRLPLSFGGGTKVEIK

Substitutions are numbered in sequence along the VL above, starting at 1 (not Kabat). Scale: log10 of Kd in nM, estimated from mating counts; low values are strong binders. A mean of the replicates is given; it leaves out those without a signal. Where no diploid with the target was found in any replicate, the entry reads "nd": below detection, most likely a poor binder, though not proof of it. Parent in this assay: reference entry 0.65, copy in this library 1.68.

| changes | mean log10 Kd (nM) | detected |
|---|---|---|
| N35I N37I L102K | 0.67 | 3/3 |
| K24N S28Q V29H | 1.38 | 3/3 |
| S28M W56I L100N | nd | 0/3 |
| Q27H Q96Y | 2.84 | 3/3 |
| Y31C E32C S62D | 2.83 | 3/3 |
| T59P Q96V S103H | nd | 0/3 |
| S38N W56Y Q96A | 0.04 | 3/3 |
| S26P R60H P101S | nd | 0/3 |
| V29G K36S S58L | 3.13 | 3/3 |
| E32H R34Y | 1.27 | 3/3 |
| S26V P101V S103C | nd | 0/3 |
| K24Q S58K H98G | 1.72 | 3/3 |
| S25F S62T L100Y | -0.12 | 3/3 |
| S38V R60M | 2.74 | 1/3 |
| S38E R60M L102M | nd | 0/3 |
| A40M S58Q H98T | 3.37 | 2/3 |
| R34F Y97K R99N | 0.49 | 3/3 |
| Y31M E32Y V39G | nd | 0/3 |
| S28C A40W R99P | nd | 0/3 |
| Y31T N37S S58N | 0.66 | 3/3 |
| S38L S62D | nd | 0/3 |
| S25G R34A R99D | 2.15 | 3/3 |
| V29D R34E E61T | 1.03 | 3/3 |
| S58K L102H | nd | 0/3 |
| V39C Y97G | 4.45 | 3/3 |
| S28H A40E S62P | 4.64 | 3/3 |
| S25V A40V S103Q | 3.68 | 2/3 |
| L30W T59K H98L | nd | 0/3 |
| E32C S62C L100M | 3.73 | 2/3 |
| R34A T59E Y97P | 0.37 | 3/3 |
| R34T N37D V39M | nd | 0/3 |
| Y31Q L102M S103F | 3.50 | 3/3 |
| R34W W56H | 1.11 | 3/3 |
| S33H L100N P101D | 1.40 | 3/3 |
| K36C N37Q T59M | 2.19 | 3/3 |
| S26Q E61D Q95T | 3.91 | 3/3 |
| T59D S62F L100V | 2.74 | 3/3 |
| W56R L100N | nd | 0/3 |
| Q27G Q96T S103L | 1.55 | 3/3 |
| N35H K36V S58K | 1.51 | 3/3 |
| W56P S58C P101W | nd | 0/3 |
| Y31R K36R W56A | 0.56 | 3/3 |
| N35Y V39D R99V | nd | 0/3 |
| L30E S33Q N35A | 0.84 | 3/3 |
| A57M E61H R99L | 5.30 | 3/3 |
| N37P W56K R60E | 4.22 | 1/3 |
| R60N Q95C L100M | 4.55 | 1/3 |
| S26V A40N A57L | 5.27 | 1/3 |
| Q27M Q96P H98K | nd | 0/3 |
| S26V A40K S62N | nd | 0/3 |

Nonspecific signal, from three strains lacking the peptide, appeared in 18% of pairings of library AAYL50, centred on 4.19 (5% of these signals below 2.99); values are not corrected for it.